Data on 3 compounds can be found in patent US9334269B2, “Carboxamides as inhibitors of voltage-gated sodium channels” (AMGEN INC., priority 2010, dated 2016).

Protein sequences, listed by entry. Tags and fused reporters are not part of them.
UniProt Q15858, whole entry: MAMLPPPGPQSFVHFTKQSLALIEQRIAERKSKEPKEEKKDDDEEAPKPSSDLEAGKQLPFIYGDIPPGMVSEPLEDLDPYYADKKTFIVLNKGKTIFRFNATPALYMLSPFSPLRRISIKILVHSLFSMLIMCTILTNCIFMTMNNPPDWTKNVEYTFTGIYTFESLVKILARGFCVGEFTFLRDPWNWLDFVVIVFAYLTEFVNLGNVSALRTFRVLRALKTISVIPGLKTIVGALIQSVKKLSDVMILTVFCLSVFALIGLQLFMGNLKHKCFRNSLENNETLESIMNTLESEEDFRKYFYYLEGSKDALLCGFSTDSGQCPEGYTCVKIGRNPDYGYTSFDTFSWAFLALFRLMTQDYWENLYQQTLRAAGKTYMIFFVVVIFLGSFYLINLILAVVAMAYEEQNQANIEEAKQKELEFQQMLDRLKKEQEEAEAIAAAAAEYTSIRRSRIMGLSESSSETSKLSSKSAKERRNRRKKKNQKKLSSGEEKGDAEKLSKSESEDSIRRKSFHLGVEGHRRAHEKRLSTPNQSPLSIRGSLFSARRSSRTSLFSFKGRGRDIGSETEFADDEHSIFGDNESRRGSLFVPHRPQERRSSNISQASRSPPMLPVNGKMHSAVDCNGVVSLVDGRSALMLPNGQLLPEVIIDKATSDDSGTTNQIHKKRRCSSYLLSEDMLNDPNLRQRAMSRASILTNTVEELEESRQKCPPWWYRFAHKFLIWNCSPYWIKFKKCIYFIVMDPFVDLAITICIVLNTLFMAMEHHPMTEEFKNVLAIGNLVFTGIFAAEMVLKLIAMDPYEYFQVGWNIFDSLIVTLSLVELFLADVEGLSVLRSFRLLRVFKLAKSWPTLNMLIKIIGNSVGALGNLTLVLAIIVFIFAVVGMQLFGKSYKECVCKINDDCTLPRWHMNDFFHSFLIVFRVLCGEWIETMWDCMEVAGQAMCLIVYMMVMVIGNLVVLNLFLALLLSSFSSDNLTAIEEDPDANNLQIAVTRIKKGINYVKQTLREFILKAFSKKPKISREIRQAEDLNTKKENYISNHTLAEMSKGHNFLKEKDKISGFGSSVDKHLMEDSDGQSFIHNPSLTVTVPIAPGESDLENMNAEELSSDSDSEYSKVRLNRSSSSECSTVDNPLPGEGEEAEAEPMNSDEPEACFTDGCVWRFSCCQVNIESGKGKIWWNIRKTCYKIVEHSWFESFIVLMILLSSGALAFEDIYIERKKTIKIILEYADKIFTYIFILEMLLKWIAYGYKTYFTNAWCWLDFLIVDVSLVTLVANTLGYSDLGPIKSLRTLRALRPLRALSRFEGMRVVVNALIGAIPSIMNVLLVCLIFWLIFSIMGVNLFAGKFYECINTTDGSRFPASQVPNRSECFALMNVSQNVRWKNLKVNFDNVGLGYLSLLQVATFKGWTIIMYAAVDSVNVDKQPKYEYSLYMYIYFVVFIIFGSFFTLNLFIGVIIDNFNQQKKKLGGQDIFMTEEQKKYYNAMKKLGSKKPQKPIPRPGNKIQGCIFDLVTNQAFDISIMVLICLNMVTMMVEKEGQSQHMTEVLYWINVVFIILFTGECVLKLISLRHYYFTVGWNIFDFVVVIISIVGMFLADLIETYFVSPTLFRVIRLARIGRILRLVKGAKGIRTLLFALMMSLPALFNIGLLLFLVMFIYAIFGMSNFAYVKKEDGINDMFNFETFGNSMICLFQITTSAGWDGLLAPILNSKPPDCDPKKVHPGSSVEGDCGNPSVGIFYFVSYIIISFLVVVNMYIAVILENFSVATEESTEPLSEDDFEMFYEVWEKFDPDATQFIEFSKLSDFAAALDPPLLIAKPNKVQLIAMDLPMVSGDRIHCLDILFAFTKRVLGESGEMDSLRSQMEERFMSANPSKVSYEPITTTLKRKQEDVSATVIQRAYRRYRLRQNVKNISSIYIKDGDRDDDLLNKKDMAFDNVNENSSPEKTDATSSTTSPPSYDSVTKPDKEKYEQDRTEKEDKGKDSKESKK

The target in the assay is human Nav1.7 (hNav1.7) (Homo sapiens, UniProt Q15858). As to the kind of experiment: hNav1.7 whole-cell patch-clamp electrophysiology (automated PatchXpress 7000A or manual) in stably expressing 293 cells. As to conditions: read-out: hNav1.7 IC50 (μM) (AVG); average IC50, human Nav1.7. (Patch clamp records ionic current or voltage across a cell membrane.)

By IC50 is commonly meant the concentration that gives 50% inhibition. Take `CNC(=O)c1cccc(Nc2ncnc(N3CCC(Oc4ccc(OC(F)(F)F)cc4)C3)n2)c1` (stereo not drawn): the IC50 came out at 3.17 µM. With `CNC(=O)c1cccc(Nc2ncnc(N3CC(C(C)Oc4ccc(Cl)cc4)C3)n2)c1` (stereo not drawn), the IC50 is 5.34 µM. As for `CNC(=O)c1cccc(Nc2ncnc(NC(C)CCc3ccccc3)n2)c1` (stereo not drawn), the half-maximal inhibitory concentration (IC50) is 1.44 µM.
